Test system: retina
Experiment: Retinal penetration of FAM-labeled Nuc1 after intravitreal injection
Method: Intravitreal and subretinal injections: Mice were anesthetized by injecting intraperitoneally a cocktail mixture containing Ketamine (100 mg/kg, Phoenix™, St Joseph, Mo.) and Xylazine (10 mg/kg, Lloyed, Shenandoah, Iowa) followed by topical application of 0.5% proparacaine hydrochloride (Akorn Inc., Lake Forest, Ill., USA) for topical analgesia to the cornea. Mice were kept warm during anesthesia. lntravitreal and subretinal injections were performed using a 32-gauge needle and a 5μI glass syringe, as previously described (Cashman et al., 2015). […] Four hours post injection (as indicated), eyes were enucleated and fixed in 4% paraformaldehyde. […] Retinal cryosections were taken using a Micron 550 cryostat.
Four hours post injection, eyes of these mice were enucleated and fixed in 4% paraformaldehyde. Retinal cryosections were generated using a Micron 550 cryostat and sections were imaged using a fluorescent microscope.

Sequence: ASIKVAVSAGGDKPRR [Nuc1]
- penetration into the retina compared with previously described retinal penetrating peptides: substantially superior to any of our previously described retinal penetrating peptides including POD

— patent US11713337B2, “Peptide, compositions and method for delivery of agents into cells and tissues” (priority 2019, dated 2023)
